Data set [1] is described as follows: Stability to human liver microsomes. Format: in vitro ADME. The following applies: pH 7.4, 37 °C, 0.5 mg/mL protein, NADPH regenerating system, 60 min. On the technique in general: Liver microsomes are vesicles of endoplasmic reticulum, rich in cytochrome P450 enzymes.
Data set [2] in a line: Stability to mouse liver microsomes. In kind it is in vitro ADME, CD-1 mouse. The following applies: pH 7.4, 37 °C, 0.5 mg/mL protein, NADPH regenerating system, 60 min.

`O=[N+]([O-])c1cn2c(n1)OC[C@@H](OCc1ccc(C#Cc3ccc(OC(F)(F)F)cc3)cn1)C2` [compound 18, (6S)-2-Nitro-6-[(5-{[4-(trifluoromethoxy)phenyl]ethynyl}-2-pyridinyl)methoxy]-6,7-dihydro-5H-imidazo[2,1-b][1,3]oxazine]: the amount remaining (in general, the share of the starting amount still present when the sample was taken) at 1 h, 1 µM in data set [1] stood at 98%; in data set [2], 97%.

The values are drawn from patent EP2459571B1, “NITROIMIDAZOOXAZINES AND THEIR USES IN ANTI-[…]” (priority 2009, dated 2011).
